System: LIF-overexpressing MCF-7 (MCF-7 LIF) human breast cancer cells
Experiment: LIF specificity assay, LIF-overexpressing cells
Format: cell-based
Settings: MCF-7 vs. MCF-7 LIF cytotoxicity (specificity towards LIF)

Question: With `C#CC(F)(F)[C@]1(O)CCC2C3CCC4=CC(=O)CCC4=C3C(c3ccc(C4CC4)cc3)C[C@@]21C` (stereo partly drawn) [EC330, 17α-(1,1-difluoro-2-propyn-1-yl)-17β-hydroxy-11β-[4-p-(cyclopropyl)phenyl]estra-4,9-dien-3-one] as the compound, how does the “Fold Change” value read?
Answer: Its value is 3.

Source: patent US10053485B2, “Cytotoxic agents that preferentially target leukemia inhibitory factor (LIF) for the treatment of malignancies and as new contraceptive agents” (Evestra, Inc., priority 2015, dated 2018)
